Columns and labels:
[1] = molecular target: Glutamate NMDA receptor; GRIN1/GRIN2A (Homo sapiens, UniProt Q05586+Q12879); experiment: Positive allosteric modulation of recombinant human GluN1/GluN2A receptor stably expressed in HEK293 cells assessed as increase in glycine/L-glutamate-induced channel current at -70 mV holding potential by whole cell patch clamp method relative to control; type: cell-based; settings: filed as positive allosteric modulator
[2] = molecular target: Glutamate NMDA receptor; GRIN1/GRIN2B (Homo sapiens, UniProt Q05586+Q13224); experiment: Positive allosteric modulation of recombinant human GluN1/GluN2B receptor stably expressed in HEK293 cells assessed as increase in glycine/L-glutamate-induced channel current at -70 mV holding potential by whole cell patch clamp method relative to control; type: cell-based; settings: filed as positive allosteric modulator

The chains behind the UniProt entries cited, without tags or fusion partners.
UniProt Q12879, whole entry, looked up: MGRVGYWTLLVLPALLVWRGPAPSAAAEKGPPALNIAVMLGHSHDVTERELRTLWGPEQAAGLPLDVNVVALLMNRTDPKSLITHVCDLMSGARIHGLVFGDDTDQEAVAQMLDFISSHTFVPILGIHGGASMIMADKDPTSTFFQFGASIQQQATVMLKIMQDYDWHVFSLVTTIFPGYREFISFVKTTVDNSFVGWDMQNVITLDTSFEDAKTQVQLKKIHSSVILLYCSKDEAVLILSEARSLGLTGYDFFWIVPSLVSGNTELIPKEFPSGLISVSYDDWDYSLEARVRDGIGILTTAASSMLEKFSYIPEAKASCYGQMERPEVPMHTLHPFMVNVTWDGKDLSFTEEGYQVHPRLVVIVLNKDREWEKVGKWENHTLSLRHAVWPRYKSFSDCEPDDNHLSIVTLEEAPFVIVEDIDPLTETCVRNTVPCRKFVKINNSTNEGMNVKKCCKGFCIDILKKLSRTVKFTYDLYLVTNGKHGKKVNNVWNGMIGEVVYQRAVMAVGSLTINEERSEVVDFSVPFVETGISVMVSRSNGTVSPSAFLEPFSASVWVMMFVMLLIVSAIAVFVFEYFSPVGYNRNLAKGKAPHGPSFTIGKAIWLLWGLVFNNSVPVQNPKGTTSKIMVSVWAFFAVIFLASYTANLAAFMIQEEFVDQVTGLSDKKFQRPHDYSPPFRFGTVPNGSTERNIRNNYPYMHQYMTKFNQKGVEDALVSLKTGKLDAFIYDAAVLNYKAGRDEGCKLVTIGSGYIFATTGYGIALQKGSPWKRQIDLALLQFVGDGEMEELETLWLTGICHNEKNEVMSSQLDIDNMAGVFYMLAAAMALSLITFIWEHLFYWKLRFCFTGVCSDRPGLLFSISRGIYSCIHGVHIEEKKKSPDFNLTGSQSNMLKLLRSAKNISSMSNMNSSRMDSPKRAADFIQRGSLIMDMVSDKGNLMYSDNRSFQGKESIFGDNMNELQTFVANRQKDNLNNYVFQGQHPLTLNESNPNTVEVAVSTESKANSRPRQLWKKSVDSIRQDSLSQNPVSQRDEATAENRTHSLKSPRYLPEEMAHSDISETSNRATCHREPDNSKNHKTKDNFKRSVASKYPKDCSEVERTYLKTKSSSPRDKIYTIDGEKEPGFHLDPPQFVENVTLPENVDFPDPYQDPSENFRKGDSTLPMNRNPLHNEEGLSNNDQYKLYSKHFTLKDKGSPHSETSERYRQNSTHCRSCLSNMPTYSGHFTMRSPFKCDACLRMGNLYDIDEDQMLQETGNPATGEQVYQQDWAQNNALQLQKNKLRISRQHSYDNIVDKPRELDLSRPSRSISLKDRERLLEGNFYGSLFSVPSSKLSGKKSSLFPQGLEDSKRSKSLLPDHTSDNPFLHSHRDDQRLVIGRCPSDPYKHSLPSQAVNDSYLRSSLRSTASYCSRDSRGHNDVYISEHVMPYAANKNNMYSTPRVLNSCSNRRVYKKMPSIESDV
UniProt Q13224, whole entry, looked up: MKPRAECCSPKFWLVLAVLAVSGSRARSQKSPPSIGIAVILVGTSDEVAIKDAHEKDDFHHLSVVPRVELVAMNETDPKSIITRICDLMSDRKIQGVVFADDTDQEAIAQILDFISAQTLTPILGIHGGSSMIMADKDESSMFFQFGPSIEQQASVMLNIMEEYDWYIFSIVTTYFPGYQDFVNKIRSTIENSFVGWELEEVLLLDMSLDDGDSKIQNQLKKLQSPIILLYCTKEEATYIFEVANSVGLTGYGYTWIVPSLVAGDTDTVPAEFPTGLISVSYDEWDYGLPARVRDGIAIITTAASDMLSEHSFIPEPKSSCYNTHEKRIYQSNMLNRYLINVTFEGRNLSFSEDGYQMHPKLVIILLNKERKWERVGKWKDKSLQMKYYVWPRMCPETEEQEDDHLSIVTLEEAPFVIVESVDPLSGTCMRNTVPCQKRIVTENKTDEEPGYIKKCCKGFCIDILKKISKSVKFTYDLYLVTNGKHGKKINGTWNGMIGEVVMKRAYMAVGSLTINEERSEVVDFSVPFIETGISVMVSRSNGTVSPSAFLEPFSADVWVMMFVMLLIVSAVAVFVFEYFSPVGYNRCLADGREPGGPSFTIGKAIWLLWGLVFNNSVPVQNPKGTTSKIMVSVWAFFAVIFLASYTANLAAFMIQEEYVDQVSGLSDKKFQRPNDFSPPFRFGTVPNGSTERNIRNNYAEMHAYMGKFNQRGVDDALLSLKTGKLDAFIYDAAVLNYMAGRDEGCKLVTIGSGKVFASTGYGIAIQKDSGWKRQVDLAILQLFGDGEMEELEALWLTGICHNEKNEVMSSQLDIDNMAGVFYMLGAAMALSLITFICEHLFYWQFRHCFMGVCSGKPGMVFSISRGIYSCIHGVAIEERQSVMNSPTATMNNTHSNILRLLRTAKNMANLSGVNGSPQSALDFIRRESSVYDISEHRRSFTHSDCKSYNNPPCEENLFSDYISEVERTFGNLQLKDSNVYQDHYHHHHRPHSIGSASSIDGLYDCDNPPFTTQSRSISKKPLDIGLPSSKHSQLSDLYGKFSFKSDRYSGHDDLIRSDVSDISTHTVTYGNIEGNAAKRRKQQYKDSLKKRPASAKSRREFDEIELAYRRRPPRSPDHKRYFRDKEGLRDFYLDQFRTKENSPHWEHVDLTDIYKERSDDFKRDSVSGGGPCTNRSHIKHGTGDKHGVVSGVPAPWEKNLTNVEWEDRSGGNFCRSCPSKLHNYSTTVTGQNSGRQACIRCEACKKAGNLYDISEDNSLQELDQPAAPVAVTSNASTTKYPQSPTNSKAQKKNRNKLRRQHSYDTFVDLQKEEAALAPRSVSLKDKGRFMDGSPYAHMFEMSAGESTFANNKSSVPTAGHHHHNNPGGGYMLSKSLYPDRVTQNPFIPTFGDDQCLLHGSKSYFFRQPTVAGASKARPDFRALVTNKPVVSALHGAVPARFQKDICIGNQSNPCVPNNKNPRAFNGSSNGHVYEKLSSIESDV

Row | Structure (SMILES) | Emax [1] [%] | Emax [2] [%]
1 | C[C@H](CC[C@](C)(O)C(F)(F)F)[C@H]1CC[C@H]2[C@@H]3CC=C4C[C@@](C)(O)CC[C@]4(C)[C@H]3CC[C@]12C [DALZANEMDOR] | 310 | 370
2 | C[C@H](CC[C@](C)(O)C(F)(F)F)[C@H]1CC[C@H]2[C@@H]3CC=C4C[C@](C)(O)CC[C@]4(C)[C@H]3CC[C@]12C | 220 | 210
3 | C[C@H](CC[C@@](C)(O)C(F)(F)F)[C@H]1CC[C@H]2[C@@H]3CC=C4C[C@@](C)(O)CC[C@]4(C)[C@H]3CC[C@]12C | 210 | 200
